Experimental data from BindingDB's records for doi:10.1021/jm0308904 (Universitat Hamburg, 2004).

Protein sequences, listed by entry. Tags and fused reporters are not part of them.
UniProt Q00535, whole entry: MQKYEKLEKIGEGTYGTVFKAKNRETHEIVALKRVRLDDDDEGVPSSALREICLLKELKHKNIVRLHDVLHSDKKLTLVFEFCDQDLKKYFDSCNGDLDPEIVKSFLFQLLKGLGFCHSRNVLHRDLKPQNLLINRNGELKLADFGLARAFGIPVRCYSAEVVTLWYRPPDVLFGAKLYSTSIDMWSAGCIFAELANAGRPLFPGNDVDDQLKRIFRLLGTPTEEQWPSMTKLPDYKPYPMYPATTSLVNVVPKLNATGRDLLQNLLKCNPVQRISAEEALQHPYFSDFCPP

Biological target: Cyclin-dependent kinase 5 activator 1 [99-307] (Homo sapiens, UniProt Q00535)
Conditions: 30 °C

## CC(=O)Nc1ccc2[nH]c3c(c2c1)CC(=O)Nc1ccccc1-3 [NSC 716451]
  IC50: 5.5 µM
